The values below are quoted from earlier work in patent US5532240A, “Condensed thiophene compound and pharmaceutical use thereof” (Yoshitomi Pharmaceutical Industries, Ltd., priority 1991, dated 1996).

The data set has as its system 5-HT2. Conditions: cited from earlier work.

For the molecule `Cc1nc2n(c(=O)c1CCN1CCC(c3noc4cc(F)ccc34)CC1)CCCC2` [Risperidone], the “5-HT2 receptor antagonistic properties” value is “extremely potent”.
